Molecular target: Casein kinase I isoform epsilon (Homo sapiens, UniProt P49674)
Experiment: Inhibition of Casein kinase 1 epsilon

Chains of the proteins cited; added tags and fusions are not shown. Lines headed by an entry give the natural chain unless they say otherwise; changes in a name come on top.
UniProt P49674: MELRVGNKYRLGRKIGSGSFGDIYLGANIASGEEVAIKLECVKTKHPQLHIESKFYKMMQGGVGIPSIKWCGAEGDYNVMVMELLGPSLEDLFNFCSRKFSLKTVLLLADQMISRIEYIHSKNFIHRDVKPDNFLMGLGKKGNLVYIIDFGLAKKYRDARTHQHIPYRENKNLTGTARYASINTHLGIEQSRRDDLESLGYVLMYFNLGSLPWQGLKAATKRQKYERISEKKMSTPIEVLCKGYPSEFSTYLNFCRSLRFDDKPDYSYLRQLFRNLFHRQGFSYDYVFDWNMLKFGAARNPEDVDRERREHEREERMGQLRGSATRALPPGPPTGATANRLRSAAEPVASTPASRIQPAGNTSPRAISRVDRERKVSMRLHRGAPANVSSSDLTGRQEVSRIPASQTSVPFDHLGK

Nc1ncnc2c1c(COc1cccc(Cl)c1)nn2C1CCOCC1
IC50: 32 nM

Reference: ChEMBL document CHEMBL2176885, “Structural basis for the potent and selective inhibition of casein kinase 1 epsilon” (J Med Chem, 2012)
